The data set concerns motor neurons. Nature of the data set: Cell Titer Glo neuronal survival with MG-132. The settings on record: indicated concentrations and times.

Molecules are shown by their SMILES. Where a SMILES comes first, the peptide text is derived from it. The star is where a group is joined. Cbz = O=C(OCc1ccccc1)*

For the molecule `CC(C)C[C@@H](C=O)NC(=O)[C@H](CC(C)C)NC(=O)[C@H](CC(C)C)NC(=O)OCc1ccccc1` [MG-132] (Cbz-Leu-Leu-Leu-aldehyde), the “neuronal survival (viability)” value is listed as “viable after 1 day of treatment at all the concentrations tested”.

The values are drawn from US20240011027A1, “METHODS AND COMPOSITIONS FOR RESTORING STMN2 LEVELS” (President and Fellows of Harvard College, priority 2020, published 2024).
